Measurements taken from patent US9718813B2, “Imidazolin-5-one derivative useful as FASN inhibitors for the treatment of cancer” (Janssen Pharmaceutica, NV, priority 2013, dated 2017).

The chains behind the UniProt entries cited, without tags or fusion partners.
UniProt P49327, whole entry: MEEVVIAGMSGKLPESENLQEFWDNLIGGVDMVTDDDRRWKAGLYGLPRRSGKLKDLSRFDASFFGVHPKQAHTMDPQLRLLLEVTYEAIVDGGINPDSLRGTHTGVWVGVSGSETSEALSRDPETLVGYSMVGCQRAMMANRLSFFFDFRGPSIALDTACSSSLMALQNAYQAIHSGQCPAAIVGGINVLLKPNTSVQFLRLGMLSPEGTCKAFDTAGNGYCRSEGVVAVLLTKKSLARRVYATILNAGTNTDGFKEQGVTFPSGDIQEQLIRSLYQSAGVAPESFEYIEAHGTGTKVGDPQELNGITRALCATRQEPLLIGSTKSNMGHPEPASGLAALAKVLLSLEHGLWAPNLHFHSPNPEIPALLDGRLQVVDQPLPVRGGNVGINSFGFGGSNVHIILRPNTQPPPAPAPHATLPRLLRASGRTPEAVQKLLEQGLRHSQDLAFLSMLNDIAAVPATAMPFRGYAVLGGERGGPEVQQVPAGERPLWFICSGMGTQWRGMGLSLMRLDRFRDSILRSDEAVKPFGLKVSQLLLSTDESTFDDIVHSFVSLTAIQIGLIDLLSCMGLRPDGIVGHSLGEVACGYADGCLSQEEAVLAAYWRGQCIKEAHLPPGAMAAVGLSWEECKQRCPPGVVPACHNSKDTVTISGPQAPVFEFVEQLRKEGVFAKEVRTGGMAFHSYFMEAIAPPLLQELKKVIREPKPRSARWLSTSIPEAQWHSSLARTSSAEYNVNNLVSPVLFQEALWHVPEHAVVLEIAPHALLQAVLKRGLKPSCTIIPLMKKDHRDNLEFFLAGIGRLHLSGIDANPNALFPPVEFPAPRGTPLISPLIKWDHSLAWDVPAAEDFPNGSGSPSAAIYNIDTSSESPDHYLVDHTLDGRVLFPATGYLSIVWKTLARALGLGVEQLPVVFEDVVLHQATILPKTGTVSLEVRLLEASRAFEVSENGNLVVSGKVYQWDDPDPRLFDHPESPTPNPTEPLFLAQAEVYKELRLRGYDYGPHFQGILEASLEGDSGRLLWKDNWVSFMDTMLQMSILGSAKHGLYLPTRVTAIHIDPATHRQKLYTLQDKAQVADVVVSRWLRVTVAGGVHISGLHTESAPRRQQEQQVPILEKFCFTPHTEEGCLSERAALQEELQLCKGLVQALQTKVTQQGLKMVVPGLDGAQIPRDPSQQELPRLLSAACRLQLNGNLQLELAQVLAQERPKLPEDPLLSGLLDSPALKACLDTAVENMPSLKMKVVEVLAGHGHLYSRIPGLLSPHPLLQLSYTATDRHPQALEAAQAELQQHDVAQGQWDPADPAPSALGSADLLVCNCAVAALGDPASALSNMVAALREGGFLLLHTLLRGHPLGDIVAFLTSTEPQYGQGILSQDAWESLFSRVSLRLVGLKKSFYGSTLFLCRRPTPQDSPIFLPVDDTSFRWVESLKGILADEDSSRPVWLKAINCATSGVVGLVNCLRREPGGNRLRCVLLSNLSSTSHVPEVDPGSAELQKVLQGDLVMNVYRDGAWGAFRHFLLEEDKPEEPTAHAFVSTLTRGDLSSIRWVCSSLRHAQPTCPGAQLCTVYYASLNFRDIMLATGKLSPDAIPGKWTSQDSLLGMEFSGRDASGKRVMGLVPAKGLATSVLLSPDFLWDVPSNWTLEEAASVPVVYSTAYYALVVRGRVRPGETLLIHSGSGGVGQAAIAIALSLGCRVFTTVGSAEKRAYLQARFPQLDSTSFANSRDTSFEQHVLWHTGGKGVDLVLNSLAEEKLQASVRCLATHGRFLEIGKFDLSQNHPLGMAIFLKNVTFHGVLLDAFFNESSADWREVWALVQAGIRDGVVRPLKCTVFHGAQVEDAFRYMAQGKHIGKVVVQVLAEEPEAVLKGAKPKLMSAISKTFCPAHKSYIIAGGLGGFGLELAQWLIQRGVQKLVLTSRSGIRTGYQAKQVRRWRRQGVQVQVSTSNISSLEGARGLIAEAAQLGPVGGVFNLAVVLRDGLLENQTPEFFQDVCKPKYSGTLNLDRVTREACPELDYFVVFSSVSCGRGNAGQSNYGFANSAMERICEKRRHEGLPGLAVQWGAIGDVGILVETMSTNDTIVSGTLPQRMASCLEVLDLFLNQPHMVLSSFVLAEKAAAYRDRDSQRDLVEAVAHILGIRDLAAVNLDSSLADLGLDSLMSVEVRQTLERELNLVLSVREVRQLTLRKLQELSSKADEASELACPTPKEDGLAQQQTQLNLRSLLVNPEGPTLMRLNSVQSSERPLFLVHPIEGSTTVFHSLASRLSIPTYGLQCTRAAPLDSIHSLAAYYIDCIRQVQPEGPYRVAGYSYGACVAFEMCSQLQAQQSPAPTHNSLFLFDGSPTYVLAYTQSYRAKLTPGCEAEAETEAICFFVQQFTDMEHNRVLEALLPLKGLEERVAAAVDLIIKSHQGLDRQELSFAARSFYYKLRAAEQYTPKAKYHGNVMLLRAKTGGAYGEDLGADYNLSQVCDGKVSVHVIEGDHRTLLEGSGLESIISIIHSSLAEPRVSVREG

Experiments:
[1] = target: hFASN enzyme (full length) (Homo sapiens (Human), UniProt P49327); assay: Fatty Acid Synthase (FASN) Inhibition Scintillation Proximity Assay; assay type: biochemical
Protocol: In this assay, inhibition of FASN activity is measured using ^3H-acetyl-CoA and malonyl-CoA as substrates. ^3H-Acetyl CoA is converted to ^3H-palmitate through a series of reactions by the FASN protein, which contains 7 functional domains and carries out 7 enzymatic reactions to ultimately produce ^3H-palmitate. The assay principle is based upon the fact that ^3H-acetyl-CoA is hydrophilic and the end product, ^3H-palmitate is hydrophobic.
10 μL assay buffer (100 mM KH2PO4 pH 7.5, 1 mM DTT) (20 μL in blanks) was added to a 384-well white Opti Plate plate (Perkin Elmer). 0.9 μL test compound (at concentrations of 30 μM, 10 μM, 3 μM, 1 μM, 0.30 μM, 0.10 μM, 0.03 μM and 0.01 μM)/DMSO and 10 μL hFASN enzyme (full length, 300 ng, purified in house) or 10 μL assay buffer was added to the wells. […] The reaction was stopped by adding 20 μL Streptavidin coupled imaging beads (25 mg/ml). After incubation for 30 minutes at room temperature in the dark, the 384 well plate was centrifuged at 1500 rpm for 3 minutes and was measured after at least 24 hrs by the LEADseeker™, measuring emission using a 610±20 nm pass filter.
(§1) Raw data generated by the instrument were normalized to % Controlmin values, which were calculated as: % Controlmin=100*(x−mLC)/(mHC−mLC)
(§2) where mLC and mHC were the means of the low control wells and high control wells on the plate, after manual exclusion of outliers. A plot of Controlmin versus test compound concentration was fitted to a 4-parameter logistic curve using a non-linear least squares regression method.

[2] = target: FASN Keto-reductase Domain (hFASN enzyme, full length) (Homo sapiens (Human), UniProt P49327); assay: Fatty Acid Synthase Keto-reductase Domain (FASN KR) Inhibition; assay type: biochemical; conditions: NADPH oxidation at 340 nm, ethyl acetoacetate substrate; read-out: FASN Keto-reductase Domain pIC50 (converted)
Protocol: After 20 minutes incubation at room temperature the plate was measured again (T2).
The decrease in absorbance was calculated as (Absorbance before incubation T1)−(Absorbance following incubation T2).
as §1, §2

Row | SMILES | IC50 [1] [nM] | IC50 [2] [nM] | Human FASN pIC50 ([1]; hFASN, 3H-acetyl-CoA and malonyl-CoA substrates, SPA, mean if tested more than once)
1 | Cn1ncc2cc(-c3ccc(C4=NC(C)(c5ccccc5)C(=O)N4C[C@@H]4CCN(C(=O)C5CC5)C4)cc3)ccc21 (mixture of isomers) [Compound 6, (4RS)-1-(((R)-1-(cyclopropanecarbonyl)pyrrolidin-3-yl)methyl)-4-methyl-2-(4-(1-methyl-1H-indazol-5-yl)phenyl)-4-phenyl-1H-imidazol-5(4H)-one] | 162 | 417 | 
2 | COCC1(C)N=C(c2ccc(-c3ccc4c(cnn4C)c3)cc2)N(C[C@@H]2CCN(C(=O)C3CC3)C2)C1=O (mixture of isomers) [Compound 10, (4RS)-1-(((R)-1-(Cyclopropanecarbonyl)pyrrolidin-3-yl)methyl)-4-(methoxymethyl)-4-methyl-2-(4-(1-methyl-1H-indazol-5-yl)phenyl)-1H-imidazol-5(4H)-one] | 490 | 1120 | 
3 | Cn1ncc2cc(-c3ccc(C4=NC(C)(C)C(=O)N4C[C@@H]4CCN(C(=O)C5CC5)C4)c(F)c3)ccc21 [Compound 53, (R)-1-((1-(cyclopropanecarbonyl)pyrrolidin-3-yl)methyl)-2-(2-fluoro-4-(1-methyl-1H-indazol-5-yl)phenyl)-4,4-dimethyl-1H-imidazol-5(4H)-one] |  |  | 7.03
